Source: US20190092850A1 (NUMAB INNOVATION, published 2019)

Protein sequences, listed by entry. Tags and fused reporters are not part of them. Residues count along the entry.
UniProt P01375, 77-233 limits assumed: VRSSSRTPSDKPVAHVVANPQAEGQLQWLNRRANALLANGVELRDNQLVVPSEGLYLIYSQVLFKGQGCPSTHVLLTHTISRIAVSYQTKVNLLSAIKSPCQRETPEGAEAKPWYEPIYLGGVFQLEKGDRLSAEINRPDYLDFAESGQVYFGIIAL

Biological target: recombinant human TNFα (human, UniProt P01375 77-233)
Assay: cell-based or functional assay

IC50, neutralization of TNFα-induced apoptosis of L929 fibroblasts (100 pM human TNFα): 36.2 ng/ml
B1: infliximab (antibody, V domains shown)
VH: EVKLEESGGGLVQPGGSMKLSCVASGFIFSNHWMNWVRQSPEKGLEWVAEIRSKSINSATHYAESVKGRFTISRDDSKSAVYLQMTDLRTEDTGVYYCSRNYYGSTYDYWGQGTTLTVSS
VL: DILLTQSPAILSVSPGERVSFSCRASQFVGSSIHWYQQRTNGSPRLLIKYASESMSGIPSRFSGSGSGTDFTLSINTVESEDIADYYCQQSHSWPFTFGSGTNLEVKR
